According to patent US9216173B2, “2-Pyridyl carboxamide-containing spleen tyrosine kinase (SYK) inhibitors” (Merck Sharp & Dohme Corp., priority 2011, dated 2015):
pIC50: −log10 of the molar value. Where two headings read alike, the source gives them in different places.

Target: T1, recombinant human GST-SYK (Homo sapiens, UniProt P43405)
T1 construct: purchased Carna Biosciences 08-176
Test: Homogeneous Time-Resolved Fluorescence (HTRF) assay for the recombinant human Syk enzyme
Assay type: biochemical
Details: GST-hSYK 5 pM, ATP 25 μM, 10-dose titration 10 μM to 0.508 nM
Experimental: Homogeneous Time-Resolved Fluorescence (HTRF) Assay for the Recombinant Human Syk Enzyme
A recombinant GST-hSYK fusion protein was used to measure potency of compounds to inhibit human Syk activity. […] Final volume of the reaction was 10 μL. Phosphorylation of the peptide was allowed to proceed for 45 minutes at room temperature. To quench the reaction and detect the phosphorylated product, 2 nM of a Europium-anti-phosphotyrosine antibody (Perkin Elmer #AD0161) and 70 nM SA-APC (Perkin-Elmer #CR130-100) were added together in 15 mM Tris pH 7.5, 40 mM EDTA, 0.01% tween 20. Final volume of the quenching solution was 10 μL. The resulting HTRF signal was measured after 30 minutes on an EnVision (Perkin-Elmer) reader using a time-resolved fluorescence protocol.

[1] = read-out: rhSYK Activity (IC50 rating)

SMILES	pIC50 (read-out: IC50)	pIC50 [1]
NC(=O)c1ncc(N[C@@H]2CS(=O)(=O)CC[C@@H]2N)cc1Nc1cccc(-n2nccn2)n1 (relative stereo) [Example 1.84, rel-5-{[(3S,4S)-4-amino-1,1-dioxidotetrahydro-2H-thiopyran-3-yl]amino(-3-{[6-(2H-1,2,3-triazol-2-yl)pyridin-2-yl]amino}pyridine-2-carboxamide]	8.74	> 8.00
Cc1cc(N(C)C)cc(Nc2cc(N[C@@H]3CCCC[C@@H]3N)cnc2C(N)=O)n1 [Example 1.78]		> 8.00
Cc1nc(Nc2cc(N[C@@H]3CCCC[C@@H]3N)cnc2C(N)=O)ccc1-c1ccncc1 [Example 3.23, 5-{[(lR,2S)-2-aminocyclohexyl]amino}-3-[(2-methyl-3,4′-bipyridin-6-yl)amino]pyridine-2-carboxamide]		> 8.00
